Screening data from PubChem.
The list is not random: actives were taken first. Their share in the collection is about 1.1%.
PINK1 expr mod = modulators of PINK1 expression. actives 0.2% (n = 410,000). Potency, µM (top dose mostly 76.6 µM), for inactives: top-dose activation (PINK1 increase), usual class: activators. PINK1 immunofluorescence, high-content cytometry, 24 h; active means well fitted activation curve with a large enough effect; inconclusive means small, poorly fitted or top-dose-only effect; cell line not stated here; further: potency means the concentration at half of the fitted maximal effect; % of control where 0% means no effect; nearly all actives have a fitted effect of over 65% in size
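Readout is PINK1 immunofluorescence, quantified alongside mitochondrial, cell and nuclear markers by laser-scanning microplate cytometry. Cells from a stable line were exposed to compound titrations (5 concentrations) for 24 hours, with CCCP controls.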
TrxR1 substrate = is turned over as a substrate by rat TrxR1 | Potency, µM (series often up to 114 µM), for the others: top-dose activity change, negative = substrate turnover | actives 0.01% (n = 390,000) | purified TrxR1 substrate turnover, NADPH consumption readout; further: potency means the concentration at half of the fitted maximal effect; on the % scale 0 is the no-effect control and ±100 the full control effect; nearly all actives have a fitted effect of over 50% in size
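Rat TrxR1, dispensed at 90 nM, was prereduced with 400 uM NADPH (final) for 5 min at ~22 deg C, then incubated with compound 15 min before 400 uM selenite. A first-read NADPH fluorescence drop versus no-compound background flagged substrates.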
GALK inh = inhibitors of human galactokinase. AID 1868. Purified GALK, Kinase-Glo residual ATP luminescence. actives 0.007% (n = 270,000). Potency, µM (highest dose often 57.5 µM), for inactives: at the top dose activity change, negative = inhibition, hits mostly inhibitors; further: potency means the concentration at half of the fitted maximal effect; on the % scale 0 is the no-effect control and ±100 the full control effect
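Compounds were pin-transferred into ATP buffer (35 uM final), then GALK plus galactose (5 nM, 100 uM final) was added. After 1 h at room temperature, Kinase-Glo Plus was added and luminescence read after 10 min.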
miR-21 FLuc = miR-21 reporter, rising signal; HeLa miR-21 FLuc reporter, luciferase, 48 h; Potency, µM (highest dose often 38.3 µM), for the others: top-dose reporter change, positive = more light; 340,000 tested, under 10 active; AID 2288; active = well fitted rising curve with a large enough effect; inconclusive = small, poorly fitted or top-dose-only effect; inactive = no such curve, though single readings can be large or run the other way;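 further: % of control where 0% means no effect; miR-21 action dims this reporter so a rising signal means less miR-21 action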
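HeLa miR-21-FLuc reporter line, endogenous miR-21; 2000 cells/well in DMEM/10% FBS; compound titration up to ~40uM final, 48 h, 37 degree Celsius; luciferase detection reagent, 15 min lysis, CCD luminescence.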
TrxR1 inh = rat TrxR1 inhibition. O89049. recombinant rTrxR1, NADPH fluorescence consumption, selenite substrate. Potency, µM (top dose mostly 114 µM), without a hit: at the top dose activity change, negative = inhibition, actives largely listed as inhibitors. actives 1% (n = 390,000). AID 588453; further: potency means the concentration at half of the fitted maximal effect; on the % scale 0 is the no-effect control and ±100 the full control effect; nearly all actives have a fitted effect of over 65% in size
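Rat TrxR1 (90 nM in the dispensed reagent) was pre-reduced with 400 uM NADPH for 5 min at room temperature, then incubated with compound for 15 min. After 400 uM selenite was added, NADPH fluorescence (Ex 340/Em 450 nm) was followed for 8 min.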
* hit, by the source's call; ? = inconclusive; . = not tested or not shown; [ ] = dose if it differs, or a comment. Unless noted, the call rests on the fitted dose curve; in most records, active means well fitted curve in the direction sought with a large enough effect; inconclusive means small, poorly fitted or top-dose-only effect, or another doubt; inactive means no such curve, though single readings can be large; an effect the other way counts as inactive or inconclusive.

| Molecule | PINK1 expr mod | TrxR1 substrate | GALK inh | miR-21 FLuc | TrxR1 inh |
| --- | --- | --- | --- | --- | --- |
| CCc1cccc(C)c1NC(=O)CCS(=O)(=O)c1ccc2c(c1)oc(=O)n2C | 4.1% | 1.2% | . | 0.0% | ? |
| CC(=O)Nc1ccc(S(=O)(=O)c2ccnc3cc(Cl)ccc23)cc1 | 0.5% | . | . | . | . |
| COc1ccc(C2=CC3=C(Br)C(=O)C(C)(OC(=O)c4ccc(Cl)nc4)C(=O)C3=CO2)cc1 (stereo not drawn) | 14.1µM* | 8.0% | -1.1% | -0.8% | 12.6µM* |
| COC(=O)CCC(=O)OC1(C)C(=O)C2=COC(c3ccc(OC)cc3)=CC2=C(Br)C1=O (stereo not drawn) | -0.4% | -7.4% | 4.4% | -4.0% | 14.1µM* |
| Cc1ccccc1OCc1nnc(SCC(=O)Nc2ccc3c(c2)oc2ccccc23)n1C | 12.6µM* | 7.7% | -3.0% | -14.9% | 8.3% |
| COc1cc(C)c(CN2CCOc3ccc(C(O)c4cccnc4)cc3C2)cc1C (stereo not drawn) | 0.1% | . | . | . | . |
| CC(=O)c1c(O)cc(O)cc1O | 0.0% | -2.5% | . | . | 3.55µM* |
| O=C(OCc1nc(-c2ccccc2)oc1COC(=O)c1ccco1)c1ccco1 | -3.2%[38.3 µM] | 5.1% | -1.8% | 0.3% | 3.16µM* |
| Cc1cccc(NC(=O)C2CCN(c3nnc(C)c4c(C)n(-c5ccccc5)nc34)CC2)c1C | 0.7% | 1.8% | . | -0.8% | 20.1% |
| COC(=O)c1ccc2c(c1)C(C)(C)C(/C=C/c1ccc(O)cc1)=[N+]2C | -4.9%[38.3 µM] | 64.3% | -0.5% | ? | 56.2µM* |
| COC(=O)c1ccc2c(c1)C(C)(C)C(/C=C/c1ccc(OC)c(OC)c1OC)=[N+]2C | -1.9% | 168.5% | -0.5% | ? | -25.9% |
| CSc1cccc(NC(=O)C2CCCN(S(=O)(=O)c3ccc4c(c3)CCCN4C(C)=O)C2)c1 (stereo not drawn) | -1.2% | -1.0%[57.1 µM] | . | 22.7% | 20.9%[57.1 µM] |
| CCN1C(C(=O)c2ccccc2)=C(OC(=O)COc2ccccc2)c2ccccc2S1(=O)=O | -0.6% | -6.7% | . | ? | 28.2µM* |
| CCc1ccc(Nc2n[n+](-c3ccccc3)c(-c3ccc(SC)cc3)s2)cc1 | 35.5µM* | 9.4% | . | -13.2% | 32.2% |
| OCC[n+]1ccc(/C=C/c2c[nH]c3ccccc23)cc1 | 39.8µM* | -10.1% | 0.9% | 16.3% | -8.1% |
| CCCCCCCCCCCCCCCC[n+]1ccc(/C=C/c2c[nH]c3ccccc23)cc1 | . | 3.8% | . | . | -12.3% |
| Cc1nc(C)c(CC(=O)N2CCOc3ccc(CN4CCOCC4)cc3C2)s1 | -0.5% | . | . | . | . |
| CC(NC(=O)c1ccc(Cl)c(Cl)c1)c1ccc(-c2ccccc2)cc1 (stereo not drawn) | 8.7% | 1.2%[57.1 µM] | 6.3% | -1.4% | 11.7%[2.29 µM] |
| CC(NC(=O)CCl)c1ccc(Cl)c(Cl)c1 (stereo not drawn) | -5.5% | -3.1% | -0.2% | ? | 39.8µM* |
| COc1ccccc1CNc1nc(Nc2cccc(-c3cnco3)c2)c2sccc2n1 | 3.4% | . | . | . | . |

Some of the entries above in a different format.
PINK1 expr mod	TrxR1 substrate	GALK inh	miR-21 FLuc	TrxR1 inh	canonical_smiles
0.7%	1.8%	.	-0.8%	20.1%	Cc1cccc(NC(=O)C2CCN(c3nnc(C)c4c(C)n(-c5ccccc5)nc34)CC2)c1C
-4.9%[38.3 µM]	64.3%	-0.5%	?	56.2µM*	COC(=O)c1ccc2c(c1)C(C)(C)C(/C=C/c1ccc(O)cc1)=[N+]2C
-1.9%	168.5%	-0.5%	?	-25.9%	COC(=O)c1ccc2c(c1)C(C)(C)C(/C=C/c1ccc(OC)c(OC)c1OC)=[N+]2C
-1.2%	-1.0%[57.1 µM]	.	22.7%	20.9%[57.1 µM]	CSc1cccc(NC(=O)C2CCCN(S(=O)(=O)c3ccc4c(c3)CCCN4C(C)=O)C2)c1 (stereo not drawn)
-0.6%	-6.7%	.	?	28.2µM*	CCN1C(C(=O)c2ccccc2)=C(OC(=O)COc2ccccc2)c2ccccc2S1(=O)=O

Continuation.
| Molecule | PINK1 expr mod | TrxR1 substrate | GALK inh | miR-21 FLuc | TrxR1 inh |
| --- | --- | --- | --- | --- | --- |
| COc1cc2c(NC3CCN(C)CC3)nc(N3CCCN(C)CC3)nc2cc1OCCCN1CCCC1 | -0.9% | 50.5% | . | . | 50.1µM* |
| Fc1cccc(Nc2c3c(nc4ccccc24)CCC3)c1 | ? | -6.3%[57.1 µM] | -0.9% | -7.2% | -7.9%[57.1 µM] |
| c1ccc2c(Nc3ccc4c(c3)OCCO4)c3c(nc2c1)CCCC3 | 39.8µM* | -17.9%[57.1 µM] | -1.1% | 26.8% | 0.7%[57.1 µM] |
| Cc1ccccc1CNC(=O)C(=O)NCC(c1ccc2c(c1)OCO2)N1CCOCC1 (stereo not drawn) | -0.8% | -4.2%[57.1 µM] | . | -9.5% | -6.3%[57.1 µM] |
| C/C=C/C=C\C(=O)Nc1cccc(C2=NOC3(C2)C[C@@H](C(N)=O)N(C(=O)c2cc([N+](=O)[O-])cc([N+](=O)[O-])c2C)C3)c1 (stereo partly drawn) | -0.3% | 5.0%[57.1 µM] | -2.9% | 7.4% | 15.8µM* |
| C/C=C/C=C\C(=O)Nc1cccc(C2=NOC3(C2)C[C@H](C(N)=O)N(C(=O)/C=C/C)C3)c1 (stereo partly drawn) | 0.7% | 8.3% | -0.9% | 0.7% | 14.1µM* |
| CCCCCC(=O)Nc1cccc(C2=NOC3(C2)C[C@H](C(N)=O)N(C(=O)COc2ccc(Cl)cc2)C3)c1 (stereo partly drawn) | -1.1% | -11.9% | 4.3% | ? | 3.9% |
| C/C=C(\C)C(=O)N1CC2(CC(c3cccc(NC(=O)COc4ccc(Cl)cc4)c3)=NO2)C[C@@H]1C(N)=O (stereo partly drawn) | 0.5% | -8.0%[57.1 µM] | -3.3% | 15.4% | 1.1%[57.1 µM] |
| C/C=C\C=C\C(=O)N1CC2(CC(c3cccc(NC(=O)COc4ccc(Cl)cc4)c3)=NO2)C[C@H]1C(N)=O (stereo partly drawn) | 0.4% | 12.3%[57.1 µM] | 1.1% | 2.1% | 25.1µM* |
| C/C=C\C=C/C(=O)Nc1cccc(C2=NOC3(C2)C[C@@H](C(N)=O)N(C(=O)c2ccccc2)C3)c1 (stereo partly drawn) | . | . | -3.4% | -1.5% | . |
| C/C=C\C=C/C(=O)Nc1cccc(C2=NOC3(C2)C[C@@H](C(N)=O)N(C(=O)COc2ccc(Cl)cc2)C3)c1 (stereo partly drawn) | -0.5% | -3.5% | -4.2% | 22.7% | 5.62µM* |
| O=C(Nc1cccc(N2CCC(NCc3cnn(-c4ccccc4)n3)CC2)c1)c1cccnc1 | -0.6% | . | . | . | . |
| NC(=S)N/N=C/c1cccc(O)c1O | 0.6% | -0.9%[57.1 µM] | 9.6% | -12.3% | -17.8%[57.1 µM] |
| Cc1cc(/C=N/NC(N)=S)c(O)c(/C=N/NC(N)=S)c1 | 44.7µM* | -5.2% | -2.6% | -3.2% | -12.0% |
| N#Cc1ccc(NC(=O)Nc2cccc(C#N)c2)cc1 | 31.6µM* | 7.7%[2.29 µM] | 1.9% | ? | 22.9%[2.29 µM] |
| COc1ccc(NC(=O)Nc2ccc(OC)cc2)cc1 | 7.1% | -2.8% | 1.0% | -43.3% | 1.5% |
| N#Cc1ccc(NC(=O)Nc2ccc(Oc3ccc(NC(=O)Nc4ccc(C#N)cc4)cc3)cc2)cc1 | 44.7µM* | 2.7% | -0.1% | ? | 17.0% |
| O=C(Nc1cc(Cl)cc(Cl)c1)c1cc(S(=O)(=O)N2CCc3ccccc3C2)ccc1F | 6.2% | 2.1%[57.1 µM] | . | -1.0% | 8.7%[57.1 µM] |
| Cc1ccc(N(C(=O)CCl)C(C(=O)NC2CCCCC2)c2cccnc2)cc1C (stereo not drawn) | -0.8% | -3.7% | 2.1% | 29.5% | 10µM* |
| COC1C(CO)OC(n2c3c(Cl)cccc3c3c4c(c5c6cccc(Cl)c6[nH]c5c32)C(=O)NC4=O)C(O)C1O (stereo not drawn) | 39.8µM* | -3.8%[11.4 µM] | . | . | -7.4%[11.4 µM] |
| COC1C(O)C(CO)OC1n1c(Br)nc2c(=O)[nH]c(N)nc21 (stereo not drawn) | 0.5% | . | . | . | . |
| O=C(Cc1ccc(Cl)cc1)NN1C(=O)c2ccccc2C1=O | 0.3% | 5.0% | -0.5% | -2.2% | 18.9% |
| COC(=O)[C@@H]1[C@@H](C#N)C2(c3ccccc3-c3ccccc32)N(c2ccc(Cl)cc2)N1C#N | -2.1% | -3.5% | -3.5% | 13.6% | 7.94µM* |
